We go through 1 compound from ChEMBL document CHEMBL4673253, “Discovery of EST73502, a Dual μ-Opioid Receptor Agonist and σ Receptor Antagonist Clinical Candidate for the Treatment of Pain” (J Med Chem, 2020).

Protein sequences, listed by entry. Tags and fused reporters are not part of them.
UniProt Q99720, whole entry, looked up: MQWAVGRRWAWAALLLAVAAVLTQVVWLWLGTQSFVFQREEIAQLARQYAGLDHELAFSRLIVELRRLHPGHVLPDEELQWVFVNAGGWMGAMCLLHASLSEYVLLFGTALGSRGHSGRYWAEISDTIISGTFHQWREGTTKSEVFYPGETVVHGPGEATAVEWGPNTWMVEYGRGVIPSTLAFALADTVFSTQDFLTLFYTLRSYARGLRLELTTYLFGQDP

The target of the experiment is Sigma non-opioid intracellular receptor 1 (Homo sapiens, UniProt Q99720). The settings on record: hek293.

`O=C1N(c2cccnc2C(F)(F)F)CC2(CCN(CCc3ccccc3F)CC2)OC12CC2` returned a Ki of 58 nM.

The term Ki denotes a dissociation constant, usually derived from enzyme kinetics or from competition with a known ligand. Low values mean tighter binding, high ones weaker binding.
